Assay results reported in patent US20250114362A1, “METHODS AND COMPOSITIONS FOR TREATMENT OF CUTANEOUS PROLIFERATIVE DISORDERS AND OTHER SKIN CONDITIONS” (ASYMMETRIC THERAPEUTICS, LLC, priority 2022, published 2025).

Tested on: MatTek human PSE culture system (SOR-300-FT)
Test: MatTek human PSE culture system, tissue layer thickness and histology
Conditions: 100 nM Vitamin D

Vitamin D
tissue integrity: separation of a thinned dermis and the epidermis layers
